The results in this text go back to ChEMBL document CHEMBL2401731, “Synthesis and pharmacological evaluation of 2-aryloxy/arylamino-5-cyanobenzenesulfonylureas as novel thromboxane A₂ receptor antagonists” (Eur J Med Chem, 2013).

Each structure is given as a SMILES string.

The species named for the assay is Homo sapiens. As to the kind of experiment: Selectivity index, ratio of IC50 for human thromboxane A2 receptor alpha to IC50 for human thromboxane A2 receptor beta. In short, it runs like this:
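IC50 at TPα divided by IC50 at TPβ. Both IC50s come from U-46619-stimulated Fluo-4 calcium mobilization in HEK293 cells stably expressing each isoform. Mean ± SD of three separate experiments.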
As to `Cc1ccc(Oc2ccc(C#N)cc2S(=O)(=O)NC(=O)NC(C)(C)C)cc1`, the Ratio IC50 is 1.1.
As to `Cc1ccccc1Nc1ccc(C#N)cc1S(=O)(=O)NC(=O)NC(C)(C)C`, the Ratio IC50 was 0.6.
The value for `Cc1cccc(Oc2ccc(C#N)cc2S(=O)(=O)NC(=O)NC(C)(C)C)c1` was 1.5.
Turning to `Cc1ccc(Nc2ccc(C#N)cc2S(=O)(=O)NC(=O)NC(C)(C)C)cc1`, the Ratio IC50 worked out at 0.8.
The value for `Cc1ccccc1Oc1ccc(C#N)cc1S(=O)(=O)NC(=O)NC(C)(C)C` was 2.5.
